Results as given in patent publication US20240317853A1 (UNIVERSITY OF TOKYO, published 2024).

Experiments:
Experiment in all cases: SPR (Biacore 8K), antibody amine-coupled on CM5, CADM1 as analyte, multi-cycle kinetics
[1] = target: T1, CADM1ecΔ9-10 (Δ9-10 variant of a CADM1 extracellular domain) (human, UniProt Q9BY67 45-371)
T1 construct: Monomer; The entry includes C-terminal myc and His tags; also called ec9-10
T1 sequence: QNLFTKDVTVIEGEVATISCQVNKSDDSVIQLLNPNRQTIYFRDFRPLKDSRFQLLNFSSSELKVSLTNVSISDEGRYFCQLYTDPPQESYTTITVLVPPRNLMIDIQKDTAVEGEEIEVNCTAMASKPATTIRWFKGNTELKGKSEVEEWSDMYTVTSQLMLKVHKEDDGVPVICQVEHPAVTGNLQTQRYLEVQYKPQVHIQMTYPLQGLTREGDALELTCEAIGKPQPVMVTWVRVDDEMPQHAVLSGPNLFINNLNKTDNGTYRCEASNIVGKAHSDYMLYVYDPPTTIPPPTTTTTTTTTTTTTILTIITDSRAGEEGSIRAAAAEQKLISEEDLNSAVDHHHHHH
Experimental: (§1) The antibody was diluted with a phosphate buffered saline (PBS) at a concentration of 1 mg/ml, and was then immobilized as a ligand on a sensor chip CM5 by an amine coupling method.

[2] = target: T2, CADM1FcΔ10 (Δ10 Fc variant formed by fusing human Fc with a CADM1 extracellular domain) (human)
T2 construct: The whole entry is the fusion (CADM1 extracellular domain, AAA linker, human IgG1 hinge-Fc); Dimerized via Fc; also called Fc10; dimerized FcΔ10
Experimental: as §1

[3] = target: T3, CADM1ecΔ10 (Δ10 variant of a CADM1 extracellular domain) (human, UniProt Q9BY67-3 45-400)
T3 construct: Monomer; The entry includes a C-terminal HHHHHH tag; also called ec10
T3 sequence: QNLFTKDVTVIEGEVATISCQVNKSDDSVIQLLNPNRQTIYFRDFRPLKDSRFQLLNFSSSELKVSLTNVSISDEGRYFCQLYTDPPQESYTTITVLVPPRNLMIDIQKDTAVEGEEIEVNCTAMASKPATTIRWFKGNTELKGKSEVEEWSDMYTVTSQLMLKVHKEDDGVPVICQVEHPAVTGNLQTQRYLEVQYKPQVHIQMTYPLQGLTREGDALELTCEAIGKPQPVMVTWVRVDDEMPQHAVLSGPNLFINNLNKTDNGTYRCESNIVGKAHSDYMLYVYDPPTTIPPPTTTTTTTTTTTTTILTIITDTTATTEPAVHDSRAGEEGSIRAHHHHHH
Experimental: as §1

Kd [1]: 130 nM
koff [1]: 0.017 s⁻¹
koff [2]: 0.00015 s⁻¹
Kd [3]: 210 nM
B1: YTH-W-2C2 chimeric antibody (antibody, V domains shown)
VH: QVQLQQSGAELAKPGSSVKISCKASGYTFSNYDISWIKQTTGQGLDYIGYIHTGSGGTYYNEKFKGKATLTVDKSSSTAFMQLSSLTPEDTAVYYCARTPYVYYGSGYFDFWGPGTMVTVSS
VL: DIVMTQSPSSLAVSAGETVTINCKSSQSLLYSGNQKNYLAWYQQKPGQSPKLLIYWASTRQSGVPDRFIGSGSGTDFTLTISSVQAEDLAIYYCQQYYDTPDTFGAGTKLELKR
